Assay results as given in ChEMBL document CHEMBL4376866, “Discovery and Structure-Based Optimization of Potent and Selective WD Repeat Domain 5 (WDR5) Inhibitors Containing a Dihydroisoquinolinone Bicyclic Core” (J Med Chem, 2020).
Calls of active or inactive are those of the source.

What was measured:
[1] = biological target: T1, WD repeat-containing protein 5 (Homo sapiens, UniProt P61964); conditions: MV4-11, 600 nM
[2] = biological target: T1, WD repeat-containing protein 5; conditions: MV4-11, 600 nM; remark: listed apart in the source
[3] = biological target: T1, WD repeat-containing protein 5; conditions: MV4-11, 600 nM; remark: listed apart in the source
[4] = biological target: T1, WD repeat-containing protein 5; conditions: MV4-11, 300 nM
[5] = biological target: T1, WD repeat-containing protein 5; conditions: MV4-11, 300 nM; remark: listed apart in the source
[6] = biological target: T1, WD repeat-containing protein 5; conditions: MV4-11, 1 uM

Measured: inhibition

COc1cc(CN2CCc3c(cc(Cn4ccn(C)c4=N)cc3-c3ccc(F)cc3C)C2=O)cc(OC)c1
active: [4] | [5] | [6]
90%: [1] | [2] | [3]
